Where two headings read alike, the source gives them in different places.

The conditions of data set [1]: rabbits; for radioactivity measured in the right paw (the site of injection), mean level: FIG. 1.
The conditions of data set [2]: breast cancer patients, expected.
The conditions of data set [3]: mini-pigs, subcutaneous injection of the anterior thigh, expected.

With “^125I-3,7-bisdimethylaminophenazathionine [^125I-methylene blue]”, the “transit to regional lymph nodes and systemic biodistribution” value in data set [1] is on record as “rapid transit of ^125I-methylene blue to regional lymph nodes with limited systemic biodistribution”. Also, the “radioactivity measured in the right paw (the site of injection), mean level” value in data set [1] (1 ml 1 mCi/ml in right hind paw, 15 min) worked out at 1.6 million; in data set [1] (48 hr), 1.4 million. Moreover, in data set [1] (15 min post-injection, FIG. 2 and FIG. 3), the “radioactivity in the lymph node, in vivo and in vitro readings, highest readings (average)” value is 1 million. Besides, in data set [1] (48 hr, FIG. 8), the “right groin radioactivity levels” value was 60,000 CPM. In data set [1] (FIG. 8), the “right groin radioactivity levels, course” value is “increased over time until 8 hr”. The “background radioactivity levels in the neck” value in data set [1] (all time periods to 48 hr, FIG. 4) is recorded as “less than 100,000 CPM”. In addition, in data set [1] (all time periods to 48 hr, FIG. 5), the “radioactivity in the left paw” value is “less than 100,000 CPM”. Besides, the “selective uptake in stomach, spleen, liver, ovary or testes, heart, lungs, or thyroid” value in data set [1] (biodistribution) is given as “no selective uptake”. In addition, the radioactivity in blood entry in data set [1] (blood (0.1 ml), all time periods to 48 hr, FIG. 6) is “less than 100,000 CPM”. For the same substance, the “radioactivity in the lymph node, in vivo and in vitro readings” value in data set [1] (declined over the 48 hr) is “about 100,000 CPM”. The “radioactivity in the kidney” value in data set [1] (from 2 hr to 8 hr, then a fall at 24 hr and 48 hr, FIG. 7) was “gradual increase”. For the same substance, the “time for radioactivity to reach the node” value in data set [1] (popliteal nodes) and in data set [3] was not above 15 min throughout. The “travel to the lymph nodes compared with ^99mTc sulfur colloid” value in data set [2] is listed as “faster”.

(Values after patent US7381400B2, “Injection of a radioactive dye for sentinel lymph node identification” (Board of Supervisors of Louisiana State University And …, priority 2004, dated 2008).)
